From PubChem BioAssay AID504375 (National Center for Advancing Translational Sciences (NCATS), 2011) come the findings set out here.

By UniProt entry, the sequences of proteins in these tests, tags left out.
UniProt Q01196, whole entry, looked up: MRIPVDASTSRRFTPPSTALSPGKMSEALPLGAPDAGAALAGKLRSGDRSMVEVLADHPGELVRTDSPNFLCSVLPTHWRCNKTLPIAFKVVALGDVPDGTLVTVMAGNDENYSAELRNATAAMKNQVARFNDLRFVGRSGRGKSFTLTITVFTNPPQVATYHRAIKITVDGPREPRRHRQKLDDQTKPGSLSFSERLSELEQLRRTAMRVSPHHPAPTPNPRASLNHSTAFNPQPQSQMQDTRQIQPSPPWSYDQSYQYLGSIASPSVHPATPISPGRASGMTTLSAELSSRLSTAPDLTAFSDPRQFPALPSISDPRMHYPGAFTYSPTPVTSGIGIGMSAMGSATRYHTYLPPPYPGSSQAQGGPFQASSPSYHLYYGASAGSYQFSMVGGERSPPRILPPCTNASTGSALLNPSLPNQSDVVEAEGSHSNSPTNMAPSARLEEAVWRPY
UniProt Q13951, whole entry, looked up: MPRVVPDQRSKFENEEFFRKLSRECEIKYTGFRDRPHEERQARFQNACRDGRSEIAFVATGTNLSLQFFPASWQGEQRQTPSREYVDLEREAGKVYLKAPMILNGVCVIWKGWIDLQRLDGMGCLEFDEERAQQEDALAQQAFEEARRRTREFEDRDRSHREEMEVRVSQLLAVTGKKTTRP

This is a selection; strong and weak results do not stand in their true shares. Records with an inconclusive call do not appear. Calls of active or inactive are those of the source. Calls come from the whole dose curve; as a rule, active = well fitted inhibition curve with a large enough effect; inconclusive = small, poorly fitted or top-dose-only effect, or effect the other way; inactive = no such curve, though single readings can be large or run the other way.
% is set by controls: 0 for no effect and ±100 for the full control effect.

The target of this assay is Runt-related transcription factor 1 (Homo sapiens) + Core-binding factor subunit beta (Homo sapiens) (UniProt Q01196+Q13951). Briefly: qHTS Assay for Compounds Blocking the Interaction Between CBF-beta and RUNX1 for the Treatment of Acute Myeloid Leukemia: Hit Validation with Orthogonal Assay. The note with it: CBFbeta-RUNX1 binding orthogonal assay, biochemical; at 41 µM (top of the series).
Regarding `N#CC1(Nc2ccccc2)CCN(Cc2ccccc2)CC1`, the activity change, negative = inhibition was inactive: -7.03%.
